Test: in vitro
Details: human, Caco-2
From the text: In FIG. 1B, Caco-2 is colon carcinoma cells used to evaluate the permeability and efflux of drug in GI track.

CC(=O)O[C@@]12CO[C@@H]1C[C@H](O)[C@@]1(C)C(=O)[C@H](O)C3=C(C)[C@@H](OC(=O)[C@H](O)[C@@H](NC(=O)OC(C)(C)C)c4ccccc4)C[C@@](O)([C@@H](OC(=O)c4ccccc4)[C@H]21)C3(C)C [DTX, docetaxel, reference compound]
efflux ratio: > 2

From patent US20170087120A1, “COMPOSITION FOR IMPROVING BIOAVAILBILITY AND EFFICACY OF TAXANE” (Florida A&M University, priority 2015, published 2017)
